## AlphaSeq binding of Ab-14 heavy chain variants to a spike HR2 peptide

Reference: Li et al. 2023, doi:10.1038/s41467-023-39022-2. File: FLAb, binding data.

Binding partner: SARS-CoV-2 spike HR2 peptide, sequence PDVDLGDISGINAS.

Parent: Ab-14, a human scFv built as VH, the linker GGGGSGGGGSGGGGS, VL. Only the CDRs of the heavy chain vary.
VH: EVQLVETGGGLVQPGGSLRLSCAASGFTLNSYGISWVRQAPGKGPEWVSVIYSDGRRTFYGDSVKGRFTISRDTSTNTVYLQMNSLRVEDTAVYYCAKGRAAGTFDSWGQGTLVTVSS
VL: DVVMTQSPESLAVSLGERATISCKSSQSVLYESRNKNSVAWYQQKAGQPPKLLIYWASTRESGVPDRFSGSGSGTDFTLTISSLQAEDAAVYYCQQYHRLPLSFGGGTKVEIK

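The parent was found by panning a naive human phage display library on the peptide. This is the validation round: designs drawn from the data on random variants, tested in the same kind of assay. Group labels follow the data file (En: ensemble of fine-tuned language models; HC: hill climbing; Gen: genetic algorithm; Gibbs: Gibbs sampling; a sequence that several methods proposed may carry one label only). Affinity was read by AlphaSeq, a pooled yeast mating assay with surface-displayed partners. Pairs that bind mate more often; barcode pairs of the diploids are counted by sequencing. Scores were corrected for input abundance and mapped to Kd with protein pairs of known affinity run in the same pool. Mating was done six times.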

The parent's heavy chain CDRs are GFTLNSYGIS, VIYSDGRRTFYGDSVK, GRAAGTFDS; each variant's own CDRs replace them letter for letter. Variants here have more than six changes. The read-out is the apparent dissociation constant on a log10 scale (nM): the lower, the stronger. Where no diploid with the target was found in that replicate, the entry reads "ND": below detection, most likely a poor binder, though not proof of it. Of ten entries with the parent sequence, four were seen in most replicates (averages 0.34 to 2.37), three in one and three in none, so single entries are noisy.

CDR-H1,CDR-H2,CDR-H3,group,"log10 Kd, replicates"
GFDLNEYGIS,VIYADGMRKVYADSVK,GNVAGTFDV,En_Gen,-0.53 -0.81 -0.49 -0.64 -0.41 -0.58
GFDLNEYGIS,VIYADGRRTFYADSVK,GKHAGTFDQ,En_HC,0.04 -0.17 -0.65 -0.61 -0.89 0.28
GFQLNEYGIS,VIYADGLRTGYAQNVK,GYHGFGLNQ,En_Gibbs,ND ND ND ND ND ND
GFDLDEYGIS,VIYADGMRTAYADNVK,GNNAGTFDI,En_Gen,-0.42 -0.24 -0.61 0.06 0.04 -0.31
GFDLNEYGIS,VIYADGMRKAYADSVK,GNQAGTFDM,En_Gen,0.22 ND -0.55 -0.15 -0.34 -0.23
GFDLNEYGIS,VIYADGVRTQYIDSVK,GNVAGTFDS,En_HC,0.03 -0.50 -0.61 -0.80 -0.56 -0.18
GFDLNEYGIS,VIYADGRRTAYADSVK,GANAGTFDI,En_Gen,-0.56 0.17 -0.81 -0.27 -0.52 -0.84
GFSLNEYGIS,VIYADGLRTEYAQNVK,GYNSSDLTK,En_Gibbs,ND ND ND ND ND ND
GFDLNEYGIS,VIYADGVRTFYADSVK,GNQAGTFDS,En_HC,-0.10 -0.30 -0.48 -0.43 -0.30 -0.16
GFDLNEYGIS,VIYADGRRTAYADSVK,GQNAGTFTL,En_HC,-0.29 -0.62 -0.55 -0.53 -0.64 -0.56
GFDIEEYGIS,VIYADGIRQAYKNDVK,GMNVGRFSV,En_Gibbs,ND ND ND ND ND ND
GFDLDEYGIS,VIYADGQRTAYTDSVK,GENAGTFDI,En_Gen,-0.29 0.21 -0.38 -0.59 -0.26 0.05
GFDLNEYGIS,VIYADGQRTVYADSVK,GENAGTFDL,En_Gen,0.13 -0.20 -0.36 -0.73 -0.39 -0.37
GFDLNEYGIS,VIYADGQRTSYADSVK,GENAGTFDV,En_Gen,-0.46 -0.31 -0.38 -0.37 -0.67 -0.11
GFDLNEYGIS,VIYADGMRTMYADSVK,GNVAGTFDI,En_Gen,0.58 1.02 0.50 0.57 0.56 1.50
GFDLNEYGIS,VIYADGLRTVYADSVK,GENAGTFDV,En_Gen,0.24 -0.39 -0.41 -0.44 -0.09 -0.49
GFDLDEYGIS,VIYADGMRTAYADDVK,GQVAGTFDL,En_Gen,-0.55 -0.20 -0.24 -0.17 -0.55 -0.54
GFDLNEYGIS,VIYADGVRTAYADDVK,GNTAGTFDV,En_Gen,-0.03 0.62 -0.19 0.04 0.26 0.04
GFSLDEQGIS,VIYADGIRRVYVDKVK,GQYGGDFIE,En_Gibbs,ND ND ND ND ND ND
GFDLNEYGIS,VIYADGMRTFYADKVK,GENAGTFDV,En_Gen,-0.15 -0.26 -0.49 -0.63 -0.21 -0.15
GFDLNEYGIS,VIYADGQRTAYADSVK,GKVAGTFDL,En_HC,-0.63 -0.84 -0.72 -1.06 -0.68 -0.61
GMNLGEYGIS,VIYADGVRTAYVDKVK,GFNQVDSLI,En_Gibbs,ND ND ND ND ND ND
GFNLDEYGVS,VIYADGHRTAYVNTVK,GKTGFVLFD,En_Gibbs,ND ND ND ND ND ND
GFDLDEYGIS,VIYADGRRTFYADSVK,GEAAGTFDV,En_HC,ND 1.49 1.02 -0.01 -0.38 1.40
GFWLDEYGIS,VIYADGMRTAYKNSVK,GSFTYVMQV,En_Gibbs,ND ND ND ND ND ND
GFNLDEYGIS,VIYADGGRVAYADNVK,GLVGKGGDL,En_Gibbs,2.63 1.27 1.50 ND 1.29 1.77
FFKLEDYGIS,VIYADGKRKAYVQNVK,GEIAGTFDV,En_Gibbs,ND ND ND ND 1.50 ND
GFSLDEFGIS,VIYADGMRSFYLDSVK,GINGNVLWI,En_Gibbs,ND ND ND ND ND ND
AFNIEDYGIS,VIYADGVRAMYVESVK,GGIAGTFEI,En_Gibbs,1.75 1.10 ND 1.84 2.05 1.01
GFDLNEYGIS,VIYADGMRTAYVDSVK,GSNAGTFDV,En_Gen,0.26 0.19 0.42 0.18 0.14 0.14
GFDLNEYGIS,VIYADGMRTQYIDSVK,GNAAGTFDV,En_HC,0.03 0.14 -0.10 -0.04 -0.27 0.31
GFVLEEYGIS,VIYADGMRTVYAEDFK,GQTGGNFHH,En_Gibbs,ND ND ND ND ND ND
GFDLNEYGIS,VIYADGMRTAYSDSVK,GENAGTFVM,En_Gen,2.35 2.08 2.25 3.73 2.68 3.00
GFDLEDYGIS,VIYADGRRTFYADSVK,GETAGTFDL,En_HC,0.07 -0.27 -0.54 -0.85 -0.83 -0.83
GFDVDKYGIS,VIYADGRRKFYQNQFK,GGQAGTFVN,En_Gibbs,ND ND ND ND ND ND
GFNFNEYGIS,VIYADGKRTAYSESVK,GNSAGTMNH,En_Gibbs,ND ND ND ND ND ND
GFDLDEYGIS,VIYADGMRTVYADSVK,GETAGTFDV,En_Gen,ND 2.96 ND 2.24 0.90 2.63

Repeated from above, the 4 best binders with a signal in all replicates:

CDR-H1	CDR-H2	CDR-H3	group	log10 Kd, replicates
GFDLNEYGIS	VIYADGQRTAYADSVK	GKVAGTFDL	En_HC	-0.63 -0.84 -0.72 -1.06 -0.68 -0.61
GFDLNEYGIS	VIYADGMRKVYADSVK	GNVAGTFDV	En_Gen	-0.53 -0.81 -0.49 -0.64 -0.41 -0.58
GFDLEDYGIS	VIYADGRRTFYADSVK	GETAGTFDL	En_HC	0.07 -0.27 -0.54 -0.85 -0.83 -0.83
GFDLNEYGIS	VIYADGRRTAYADSVK	GQNAGTFTL	En_HC	-0.29 -0.62 -0.55 -0.53 -0.64 -0.56

Three control strains display no target. For all heavy chain designs, 1% of the pairings with them gave a signal, with a median of 2.08 and one signal in twenty below 0.84, so weak values seen in few replicates may be background. In the paper, a design with two or fewer of six values counts as a poor binder. The range of this assay differs from that of the first round, and the authors advise against merging the two.